The compounds below were run against Recombinant human cathepsin S (CatS) (Homo sapiens, UniProt P25774) (assay: biochemical).

Chains of the proteins cited; added tags and fusions are not shown. Residues count along the entry.
UniProt P25774, 115-331: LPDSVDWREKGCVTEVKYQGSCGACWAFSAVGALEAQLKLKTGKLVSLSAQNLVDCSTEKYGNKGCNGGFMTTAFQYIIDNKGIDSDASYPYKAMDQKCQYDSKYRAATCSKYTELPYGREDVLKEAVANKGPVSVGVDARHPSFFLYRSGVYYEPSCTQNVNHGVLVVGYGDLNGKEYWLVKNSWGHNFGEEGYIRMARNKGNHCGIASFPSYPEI

Point of comparison: `O=C(CSc1cc(-c2nn(CC(O)CN3CCN(c4ccccc4O)CC3)c3c2CNCC3)ccc1C(F)(F)F)N1CCCC1` (stereo not shown) [Example 380, 2-{4-[2-Hydroxy-3-(3-{3-[(2-oxo-2-pyrrolidin-1-ylethyl)sulfanyl]-4-(trifluoromethyl)phenyl}-4,5,6,7-tetrahydro-1H-pyrazolo[4,3-c]pyridin-1-yl)propyl]piperazin-1-yl}phenol], IC50 310 nM. Against it:
- CC(=O)N1CCN(CCSc2cc(-c3nn(CC(O)CN4CCC(N5CCCC5)CC4)c4c3CN(S(C)(=O)=O)CC4)ccc2C(F)(F)F)CC1 (stereo not shown) [Example 802, 1-{3-[3-{[2-(4-Acetylpiperazin-1-yl)ethyl]sulfanyl}-4-(trifluoromethyl)phenyl]-5-(methylsulfonyl)-4,5,6,7-tetrahydro-1H-pyrazolo[4,3-c]pyridin-1-yl}-3-(4-pyrrolidin-1-ylpiperidin-1-yl)propan-2-ol] — 3.8-fold higher, 1180 nM
- CS(=O)(=O)N1CCc2c(c(-c3ccc(C(F)(F)F)c(SCCN4CCCC4)c3)nn2CC(O)CN2CCC(N3CCCC3=O)CC2)C1 (stereo not shown) [Example 639, 1-(1-{2-Hydroxy-3-[5-(methylsulfonyl)-3-{3-[(2-pyrrolidin-1-ylethyl)sulfanyl]-4-(trifluoromethyl)phenyl}-4,5,6,7-tetrahydro-1H-pyrazolo[4,3-c]pyridin-1-yl]propyl}piperidin-4-yl)pyrrolidin-2-one] — 3.6-fold lower, 85 nM
- OC(CN1CCC(Oc2ncccn2)CC1)Cn1nc(-c2ccc(C(F)(F)F)c(SCCN3CCC(F)CC3)c2)c2c1CCNC2 (stereo not shown) [Example 490, 1-{3-[3-{[2-(4-Fluoropiperidin-1-yl)ethyl]sulfanyl}-4-(trifluoromethyl)phenyl]-4,5,6,7-tetrahydro-1H-pyrazolo[4,3-c]pyridin-1-yl}-3-[4-(pyrimidin-2-yloxy)piperidin-1-yl]propan-2-ol] — 3.3-fold higher, 1030 nM
- CCOc1ccccc1N1CCN(CC(O)Cn2nc(-c3ccc(C(F)(F)F)c(SCCN4CCCCC4)c3)c3c2CCNC3)CC1 (stereo not shown) [Example 546, 1-{4-[2-(Ethyloxy)phenyl]piperazin-1-yl}-3-(3-{3-[(2-piperidin-1-ylethyl)sulfanyl]-4-(trifluoromethyl)phenyl}-4,5,6,7-tetrahydro-1H-pyrazolo[4,3-c]pyridin-1-yl)propan-2-ol] — 2.1-fold higher, 650 nM
- CS(=O)(=O)N1CCc2c(c(-c3ccc(C(F)(F)F)c(SCCNC4CCCCC4)c3)nn2CCCN2CCC(N3CCCC3=O)CC2)C1 [Example 674, 1-[1-(3-{3-[3-{[2-(Cyclohexylamino)ethyl]sulfanyl}-4-(trifluoromethyl)phenyl]-5-(methylsulfonyl)-4,5,6,7-tetrahydro-1H-pyrazolo[4,3-c]pyridin-1-yl}propyl)piperidin-4-yl]pyrrolidin-2-one] — 1.7-fold lower, 180 nM
- O=C(c1cccs1)N1CCc2c(c(-c3ccc(C(F)(F)F)c(SCCN4CCC(F)CC4)c3)nn2CC(O)CN2CCCCC2)C1 (stereo not shown) [Example 578, 1-{3-[3-{[2-(4-Fluoropiperidin-1-yl)ethyl]sulfanyl}-4-(trifluoromethyl)phenyl]-5-(2-thienylcarbonyl)-4,5,6,7-tetrahydro-1H-pyrazolo[4,3-c]pyridin-1-yl}-3-piperidin-1-ylpropan-2-ol] — the same, 310 nM
- CS(=O)(=O)N1CCc2c(c(-c3ccc(C(F)(F)F)c(SCC(=O)N4CCCC4)c3)nn2CC(O)CN2CCCCC2)C1 (stereo not shown) [Example 255, 1-[5-(Methylsulfonyl)-3-{3-[(2-oxo-2-pyrrolidin-1-ylethyl)sulfanyl]-4-(trifluoromethyl)phenyl}-4,5,6,7-tetrahydro-1H-pyrazolo[4,3-c]pyridin-1-yl]-3-piperidin-1-ylpropan-2-ol] — 3.1-fold lower, 100 nM
- CS(=O)(=O)N1CCc2c(c(-c3ccc(C(F)(F)F)c(SCCN4CCCCC4)c3)nn2CCCN2CCOCC2)C1 [Example 59, 5-Methanesulfonyl-1-(3-morpholin-4-yl-propyl)-3-[3-(2-piperidin-1-yl-ethylsulfanyl)-4-trifluoromethyl-phenyl]-4,5,6,7-tetrahydro-1H-pyrazolo[4,3-c]pyridine] — 2.6-fold higher, 810 nM
- O=C(Nc1cccs1)N1CCc2c(c(-c3ccc(C(F)(F)F)c(SCCN4CCC(F)CC4)c3)nn2C[C@@H](O)CN2CCCCC2)C1 [Example 626, 3-[3-{[2-(4-Fluoropiperidin-1-yl)ethyl]sulfanyl}-4-(trifluoromethyl)phenyl]-1-[(2S)-2-hydroxy-3-piperidin-1-ylpropyl]-N-2-thienyl-1,4,6,7-tetrahydro-5H-pyrazolo[4,3-c]pyridine-5-carboxamide] — within 1.5-fold, 230 nM
- O=C(N1CCOCC1)N1CCc2c(c(-c3ccc(C(F)(F)F)c(SCCN4CCC(F)CC4)c3)nn2C[C@@H](O)CN2CCCCC2)C1 [Example 587, (2S)-1-{3-[3-{[2-(4-Fluoropiperidin-1-yl)ethyl]sulfanyl}-4-(trifluoromethyl)phenyl]-5-(morpholin-4-ylcarbonyl)-4,5,6,7-tetrahydro-1H-pyrazolo[4,3-c]pyridin-1-yl}-3-piperidin-1-ylpropan-2-ol] — 2.1-fold higher, 640 nM
- CN(C)C1CCN(CCSc2cc(-c3nn(CCCN4CCC(N5CCCC5=O)CC4)c4c3CN(S(C)(=O)=O)CC4)ccc2C(F)(F)F)C1 (stereo not shown) [Example 53, 1-{1-[3-(3-{3-[2-(3-Dimethylamino-pyrrolidin-1-yl)-ethylsulfanyl]-4-trifluoromethyl-phenyl}-5-methanesulfonyl-4,5,6,7-tetrahydro-pyrazolo[4,3-c]pyridin-1-yl)-propyl]-piperidin-4-yl}-pyrrolidin-2-one] — 10-fold higher, 3230 nM
- CC(C)NCCSc1cc(-c2nn(CCCN3CCC(N4CCCC4=O)CC3)c3c2CN(S(C)(=O)=O)CC3)ccc1C(F)(F)F [Example 530, 1-[1-(3-{3-[3-({2-[(1-Methylethyl)amino]ethyl}sulfanyl)-4-(trifluoromethyl)phenyl]-5-(methylsulfonyl)-4,5,6,7-tetrahydro-1H-pyrazolo[4,3-c]pyridin-1-yl}propyl)piperidin-4-yl]pyrrolidin-2-one] — 3.9-fold higher, 1200 nM
- CS(=O)(=O)NC1CCN(CC(O)Cn2nc(-c3ccc(C(F)(F)F)c(SCCN4CCCC(CO)C4)c3)c3c2CCN(S(C)(=O)=O)C3)CC1 (stereo not shown) [Example 835, N-[1-(2-Hydroxy-3-{3-[3-({2-[3-(hydroxymethyl)piperidin-1-yl]ethyl}sulfanyl)-4-(trifluoromethyl)phenyl]-5-(methylsulfonyl)-4,5,6,7-tetrahydro-1H-pyrazolo[4,3-c]pyridin-1-yl}propyl)piperidin-4-yl]methanesulfonamide] — within 1.5-fold, 330 nM
- CN(C)S(=O)(=O)NCCSc1cc(-c2nn(CC(O)CN3CCC(N4CCCC4=O)CC3)c3c2CN(S(C)(=O)=O)CC3)ccc1C(F)(F)F (stereo not shown) [Example 831, N′-[2-({5-[1-{2-Hydroxy-3-[4-(2-oxopyrrolidin-1-yl)piperidin-1-yl]propyl}-5-(methylsulfonyl)-4,5,6,7-tetrahydro-1H-pyrazolo[4,3-c]pyridin-3-yl]-2-(trifluoromethyl)phenyl}sulfanyl)ethyl]-N,N-dimethylsulfamide] — 6.2-fold lower, 50 nM
- CCC(C)NC(=O)N1CCc2c(c(-c3ccc(C(F)(F)F)c(SCCN4CCC(F)CC4)c3)nn2C[C@@H](O)CN2CCCCC2)C1 (stereo partly drawn) [Example 523, 3-[3-{[2-(4-Fluoropiperidin-1-yl)ethyl]sulfanyl}-4-(trifluoromethyl)phenyl]-1-[(2S)-2-hydroxy-3-piperidin-1-ylpropyl]-N-(1-methylpropyl)-1,4,6,7-tetrahydro-5H-pyrazolo[4,3-c]pyridine-5-carboxamide] — 1.6-fold higher, 490 nM
